Source: published antibiotic growth screens (doi:10.1038/s41589-023-01349-8)
The other results are listed elsewhere or left out.

Each compound was assayed on A. baumannii ATCC 17978 (assay: relative growth (fraction of control); higher = less inhibition). Settings: 50 µM.

SMILES	relative growth
CCC(COC(=O)c1cc(OC)c(OC)c(OC)c1)(c1ccccc1)N(C)C.O=C(O)/C=C\C(=O)O (configuration not stated)	1
S=C=NCc1ccccc1	0.765
COP(=O)(OC)OC=C(Cl)Cl	0.979
Cn1cc([C@@H](O)c2ccccc2)[n+](C)c1	0.932
Nc1ccc(Cl)cc1Cl	0.948
CCC1(c2ccccc2)C(=O)NC(=O)NC1=O	1.08
Cc1cccc(C)c1NC(=O)CN1CCCC1=O	1.17
NNc1ccn([C@H]2O[C@@H](CO)[C@@H](O)[C@@H]2O)c(=O)n1	0.942
CCC(C)[C@H]1O[C@]2(C=C[C@@H]1C)C[C@@H]1C[C@@H](C/C=C(\C)[C@@H](OC3C[C@H](OC)C(O[C@H]4C[C@H](OC)[C@@H](O)[C@H](C)O4)[C@H](C)O3)[C@@H](C)/C=C/C=C3\CO[C@@H]4[C@H](O)C(C)=C[C@@H](C(=O)O1)[C@]34O)O2 (some centres not stated) [ABAMECTIN (avermectin B1a shown)]	0.83
CN(C)C(=O)Oc1cccc([N+](C)(C)C)c1.[Br-]	1.02
CC(C)c1ccc2[nH]c(=O)c(CCN)cc2c1	1.02
CC1(C)C2CC(=O)[C@]3(C)C(CC[C@@]4(C)[C@H](c5ccoc5)OC(=O)C5OC543)[C@@]2(C)[C@@H](O)C[C@H]1O (some centres not stated)	1.21
CCOC(=O)C1C(C=C(C)C)C1(C)C (configuration not stated)	0.995
COC1=C[C@@H]2[C@@H]3Cc4ccc(OC)c(O)c4[C@]2(CCN3C)CC1=O	0.998
CN[C@@H]1[C@@H](O)C(OC2[C@@H](N)C[C@@H](N)[C@H](O[C@H]3O[C@H](C(C)O)[C@@H](O)[C@H](O)[C@H]3N)[C@H]2O)OC[C@]1(C)O (some centres not stated)	0.121
ClC(Cl)=C(c1ccc(Cl)cc1)c1ccc(Cl)cc1	1.04
O=[N+]([O-])C(Br)(CO)CO	0.149
C=CCC1(C(C)CCC)C(=O)N=C([S-])NC1=O.[Na+] (configuration not stated)	1.14
Clc1nc(N2CCNCC2)c2[nH]cnc2n1	1.02
COc1cccc(C2(N)CCCC2)c1	0.958
Cc1ccc2[nH]cc(C[C@@H](C)N)c2c1	1
C[C@H]1CN(C)[C@@H](C)C[C@@H]1n1[nH]c(=O)cc1N	1.08
NC(Cc1ccccc1)Cc1ccccc1	0.923
COc1cccc([C@]2(O)CCCC[C@H]2CN(C)C)c1.Cl	1.03
CC(=O)N1CCCC[C@]12CCNC2	1.22
C1COC2(CN1)CNC2	1.01

SMILES	relative growth
CNc1ccccc1C(=O)O	1.09
CC(C)[N+](C)(CCC(C(N)=O)(c1ccccc1)c1ccccc1)C(C)C.[I-]	0.923
C[C@]12C=CC(=O)C=C1CCC1C2CC[C@]2(C)C(=O)CCC12 (some centres not stated)	1.17
CN1CCN(C(=O)O[C@H]2c3nccnc3C(=O)N2c2ccc(Cl)cn2)CC1	1.23
O[C@@H]1[C@@H]2C[C@H]3[C@H]1N[C@@H]1C[C@@H]2[C@@H]3[C@H]1O	1.01
C=C(C)[C@H]1CN[C@H](C(=O)O)[C@@H]1CC(=O)O	1.01
c1ccc2sc(C3(N4CCCC4)CCCCC3)cc2c1	0.991
CC(=O)O[C@H]1C[C@H](O[C@H]2[C@@H](O)C[C@H](O[C@H]3[C@@H](O)C[C@H](O[C@H]4CC[C@@]5(C)C(CCC6C5C[C@@H](O)[C@]5(C)[C@@H](C7=CC(=O)OC7)CC[C@]65O)C4)O[C@@H]3C)O[C@@H]2C)O[C@H](C)[C@H]1O[C@@H]1O[C@H](CO)[C@@H](O)[C@H](O)[C@H]1O (some centres not stated)	0.966
CN[C@@H]1[C@@H]2[C@H]3CCN2C[C@H]1O3	0.849
NC(=O)c1cc([N+](=O)[O-])cc([N+](=O)[O-])c1	0.883
COc1ccc2c(c1O)-c1c(OC)c(OC)cc3c1[C@H](C2)N(C)CC3	0.99
C[C@]12C(=O)OC(=O)[C@]1(C)[C@H]1CC[C@H]2O1	1.08
CC[C@@H](CO)NC(=O)[C@@H]1C=C2c3cccc4c3c(cn4C)C[C@H]2N(C)C1.O=C(O)/C=C\C(=O)O	1.23
CCOC(=O)CC(SP(=S)(OC)OC)C(=O)OCC (configuration not stated)	1.1
NC[C@H](CC(=O)O)c1ccc(Cl)cc1	1.04
C=CCSSCC=C	1.06
NC[C@@H]1CCCN2CCCC[C@H]12	0.957
NCc1cccnc1	0.909
NSC(=S)N1CCCC1	0.887
Br.CN1C2C[C@H](OC(=O)[C@H](CO)c3ccccc3)C[C@H]1[C@H]1OC21 (some centres not stated)	1.07
C[C@]12CCC3C(CC[C@]4(O)C[C@@H](O)CC[C@]34C=O)[C@@]1(O)CCC2C1=CC(=O)OC1 (some centres not stated)	0.961
C#C[C@]1(O)C=CC2[C@@H]3CCC4=CC(=O)CC[C@@H]4C3CC[C@@]21CC (some centres not stated)	1.21
CN1CCc2cc([C@H](CN)N(C)C)ccc21	0.991
CC(=O)O[C@@H]1C[C@@]2(C)[C@H](c3ccoc3)C[C@H]3O[C@]32[C@]2(C)C(=O)C(O)=C3C(C)(C)C(=O)C=C[C@]3(C)[C@@H]12	1.1
Cc1ccc2c(CCN)c(C)n(C)c2c1	0.997
O=c1[nH]c2ccccc2n1CCCN1CCC(n2c(=O)[nH]c3cc(Cl)ccc32)CC1	1.04
